Results published in patent US10738031B2, “N-[(heteroaryloxy)propanyl]heteroaryl carboxamides as antagonists of orexin subtype 1 receptor activity” (Boehringer Ingelheim International GmbH, priority 2016, dated 2020).

Chains of the proteins cited; added tags and fusions are not shown.
UniProt O43613, whole entry, species assumed: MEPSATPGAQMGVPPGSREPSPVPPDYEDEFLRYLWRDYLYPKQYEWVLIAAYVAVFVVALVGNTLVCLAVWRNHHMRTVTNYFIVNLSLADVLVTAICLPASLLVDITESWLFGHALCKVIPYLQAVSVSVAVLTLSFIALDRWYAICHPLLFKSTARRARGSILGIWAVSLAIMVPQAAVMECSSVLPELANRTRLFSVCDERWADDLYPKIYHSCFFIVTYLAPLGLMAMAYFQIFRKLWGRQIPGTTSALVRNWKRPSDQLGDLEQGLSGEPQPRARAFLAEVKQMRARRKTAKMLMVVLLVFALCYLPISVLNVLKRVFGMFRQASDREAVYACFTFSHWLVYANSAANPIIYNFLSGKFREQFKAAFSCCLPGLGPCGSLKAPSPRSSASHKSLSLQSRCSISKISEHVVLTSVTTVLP

Target: OX1R (Homo sapiens, UniProt O43613)
Assay: OX1R assay of WO2013/187466 (fluorescence, intracellular Ca2+)
Format: cell-based
Settings: from IC50 values described in WO2013/187466

OX2R IC50/OX1R IC50: 411
Structure (SMILES): CCN(C(=O)c1cc(F)ccc1-c1ncccn1)[C@@H](C)Cn1nnc(-c2ccc(F)cc2)n1 [Example 70 in WO2013/187466]
